The structures appear in SMILES notation. Only a part is listed here, and it is no random draw. Some results for these compounds are left out of this collection, so the calls shown say nothing about other tests. Calls of active or inactive are those of the source.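 Rule for the calls: active = binding more than 3 SD below its plate's average and above zero; inconclusive = below that plate limit but binding exactly zero; inactive = the rest.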

Chains of the proteins cited; added tags and fusions are not shown.
UniProt P32926, whole entry, looked up: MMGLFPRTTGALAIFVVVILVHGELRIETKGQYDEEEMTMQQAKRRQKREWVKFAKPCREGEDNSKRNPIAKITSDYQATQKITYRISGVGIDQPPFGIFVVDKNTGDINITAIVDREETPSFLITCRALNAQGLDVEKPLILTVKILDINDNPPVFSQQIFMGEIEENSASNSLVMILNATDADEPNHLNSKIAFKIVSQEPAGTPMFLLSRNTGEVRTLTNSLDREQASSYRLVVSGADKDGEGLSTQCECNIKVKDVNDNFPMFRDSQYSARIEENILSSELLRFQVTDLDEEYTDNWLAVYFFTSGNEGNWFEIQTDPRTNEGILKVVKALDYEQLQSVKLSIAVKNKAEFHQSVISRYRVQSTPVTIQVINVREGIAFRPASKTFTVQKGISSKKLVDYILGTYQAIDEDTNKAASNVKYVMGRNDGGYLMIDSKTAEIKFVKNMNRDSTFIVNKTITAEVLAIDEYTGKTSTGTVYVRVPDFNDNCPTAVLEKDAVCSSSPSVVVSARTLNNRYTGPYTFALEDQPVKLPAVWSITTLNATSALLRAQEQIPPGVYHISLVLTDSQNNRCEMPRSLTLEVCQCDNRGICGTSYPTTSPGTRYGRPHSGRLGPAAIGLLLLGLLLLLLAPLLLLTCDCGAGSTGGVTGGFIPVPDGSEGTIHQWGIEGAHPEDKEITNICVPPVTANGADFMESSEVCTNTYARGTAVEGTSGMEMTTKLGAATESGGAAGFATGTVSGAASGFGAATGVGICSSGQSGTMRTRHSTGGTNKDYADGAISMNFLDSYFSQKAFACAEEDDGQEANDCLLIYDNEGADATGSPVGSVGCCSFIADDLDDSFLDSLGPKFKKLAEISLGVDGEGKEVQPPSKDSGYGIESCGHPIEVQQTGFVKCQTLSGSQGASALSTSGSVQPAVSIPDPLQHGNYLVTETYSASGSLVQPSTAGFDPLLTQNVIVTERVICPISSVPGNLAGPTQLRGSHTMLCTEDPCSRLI

These results are taken from PubChem BioAssay AID588358 (NMMLSC, 2011).

In this assay the target is Desmoglein-3 (Homo sapiens) (UniProt P32926). In words: blockers of anti-DSG3 scFv binding – biochemical, bead-based, flow cytometry, scFv-GFP, primary screen (AID 588358).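 Note: hits lower antibody fragment binding to DSG3.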 Particulars: DSG3-coupled beads, at 10 µM, hits give low values.
With `CN(C)C1(CNC(=O)c2ccc(Br)cc2)CCCCC1`, the binding (percent of control) is inactive: 113%. Take `COc1cc(C(=O)NCC2(N(C)C)CCCCC2)c([N+](=O)[O-])cc1OC`: the binding (percent of control) is inactive: 105%. `COc1ccc(Cl)cc1C(=O)NCC1(N(C)C)CCCCC1`: the binding (percent of control) was inactive: 99.5%. For `O=C(OC1CN2CCC1CC2)C(CO)(c1ccccc1)c1ccccc1` (configuration not stated), the binding (percent of control) is inactive: 109%.

Regarding `C=C(C)C#CC(O)(C(=O)OC1CCN(C)CC1)c1ccccc1` (configuration not stated), the binding (percent of control) was inactive: 102%. Then `COc1ccc(Br)c(C(=O)NCC2(N3CCCCC3)CCCCC2)c1`, with inactive: 108%; and `O=C(OCCN1CCCC1)C(O)(c1ccccc1)c1ccccc1`, with inactive: 118%; and `CC(C)Oc1ccc(C(=O)NCC2(N(C)C)CCCCC2)cc1`, with inactive: 101%. For `CN(C)c1cccc(C(=O)NCC2(N(C)C)CCCCC2)c1`, the binding (percent of control) is inactive: 99.2%. For `O=C(NCC1(N2CCCCC2)CCCCC1)c1cc([N+](=O)[O-])ccc1Cl`, the binding (percent of control) was inactive: 108%. As for `CN1[C@@H]2CC[C@H]1CC(OC(=O)C(O)(c1ccccc1)c1ccccc1)C2` (some centres not stated), the binding (percent of control) was inactive: 91%. On to `COc1cc(SC)ccc1C(=O)NCC1(N(C)C)CCCCC1`, for which the binding (percent of control) is inactive: 99.2%. Then `CCN(CC)CC(C)C(C)OC(=O)C(O)(c1ccccc1)c1ccccc1` (configuration not stated), with inactive: 85.4%; and `Cc1ccc(C(=O)NCC2(N3CCCCC3)CCCCC2)cc1`, with inactive: 116%; and `CN(C)c1ccc(C(=O)NCC2(N(C)C)CCCCC2)cc1`, with inactive: 97.8%. As for `CN(C)C1CCCC1OC(=O)C(O)(c1ccccc1)c1ccccc1` (configuration not stated), the binding (percent of control) was inactive: 102%. Then `Cc1ccccc1C(=O)NCC1(N2CCCCC2)CCCCC1`, with inactive: 100%. On to `O=C(NCC1(N2CCCCC2)CCCCC1)c1cc(F)c(F)cc1Cl`, for which the binding (percent of control) is inactive: 96.8%.

On to `C=CCN1CCN(CCOC(=O)C(O)(c2ccccc2)c2ccccc2)CC1`, for which the binding (percent of control) was inactive: 100%. The value for `COc1ccc(C(=O)NCC2(N(C)C)CCCCC2)cc1` was inactive: 89.2%. Consider `CCN1CCCC(OC(=O)C2(O)c3ccccc3C=Cc3ccccc32)C1` (configuration not stated), for which the binding (percent of control) was inactive: 104%. Turning to `Cc1cc(C(=O)NCC2(N3CCCCC3)CCCCC2)ccc1[N+](=O)[O-]`, the binding (percent of control) was inactive: 111%.
